Assay results as given in patent publication US12215460B2, “Methods of microbial control” (Clean Chemistry, Inc., priority 2015, dated 2025).

Test: Cooling tower water: ORP and oxidant half life
Assay type: physicochemical
Conditions: total oxidant 0.2 to 0.5 ppm Cl2, pH about 7.8-8.2

## chlorine
  ORP of the cooling water: 500-575 mV (vs SHE)
